PubChem BioAssay (NCI)
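Here, GI50 denotes the concentration required for 50% inhibition of growth. TGI is the concentration that stops growth completely.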

Key:
Test in all cases: NCI anticancer screen, dose series, 384-well format
[1] = test system: SNB-75 CNS
[2] = test system: HCT-116 colon
[3] = test system: ACHN renal
[4] = test system: RPMI-8226 leukemia
[5] = test system: CAKI-1 renal
[6] = test system: NCI-H322M lung
[7] = test system: MCF7 breast
[8] = test system: SK-MEL-28 melanoma
[9] = test system: UACC-62 melanoma
[10] = test system: NCI-H522 lung
[11] = test system: A498 renal
[12] = test system: DU-145 prostate
[13] = test system: MDA-MB-468 breast
[14] = test system: A549 NSCLC
[15] = test system: PC-3 prostate
[16] = test system: KM12 colon
[17] = test system: U251 glioblastoma
[18] = test system: MALME-3M melanoma
[19] = test system: BT-549 breast
[20] = test system: NCI-H226 lung
[21] = test system: 786-0 renal
[22] = test system: HL-60(TB) leukemia
[23] = test system: CCRF-CEM leukemia
[24] = test system: SW-620 colon
[25] = test system: K-562 leukemia
[26] = test system: MOLT-4 leukemia
[27] = test system: SF-268 CNS
[28] = test system: LOX IMVI melanoma
[29] = test system: SF-539 CNS
[30] = test system: OVCAR-3 ovarian
[31] = test system: SNB-19 CNS
[32] = test system: RXF 393 renal
[33] = test system: TK-10 renal
[34] = test system: T-47D breast
[35] = test system: M14 melanoma
[36] = test system: HCT-15 colon

`CN(CCCl)CCCl` gave a GI50 [1] of 9.66 µM, a TGI [1] of 26 µM and a GI50 [2] of 1.07 µM. It also gave a GI50 [3] of 0.427 µM, a TGI [3] of 2.24 µM and a GI50 [4] of 0.697 µM. For the same molecule, the TGI [4] was 2.36 µM, the GI50 [5] was 1.07 µM and the TGI [5] was 16.3 µM. For the same molecule, the GI50 [6] was 21.4 µM, the TGI [6] was 64.6 µM and the GI50 [7] was 4.33 µM. It also gave a TGI [7] of 29.2 µM, a GI50 [8] of 10.2 µM and a TGI [8] of 22.5 µM. For the same molecule, the GI50 [9] was 2.17 µM, the TGI [9] was 13.5 µM and the GI50 [10] was 1.25 µM. It also gave a TGI [10] of 2.51 µM, a GI50 [11] of 13.6 µM and a TGI [11] of 57.5 µM. The GI50 [12] was 1.84 µM, the TGI [12] was 4.48 µM and the GI50 [13] was 0.521 µM. For the same molecule, the TGI [13] was 1.71 µM, the GI50 [14] was 4.33 µM and the TGI [14] was 22.4 µM. It also gave a GI50 [15] of 6.59 µM, a TGI [15] of 42.4 µM and a GI50 [16] of 3.4 µM. For the same molecule, the TGI [16] was 54.9 µM, the GI50 [17] was 2.24 µM and the GI50 [18] was 1.68 µM. It also gave a TGI [18] of 4.13 µM, a GI50 [19] of 2.08 µM and a TGI [19] of 15.6 µM. The GI50 [20] was 10 µM, the TGI [20] was 48.1 µM and the GI50 [21] was 3.15 µM. The TGI [21] was 33.6 µM, the GI50 [22] was 0.192 µM and the TGI [22] was 0.37 µM. The GI50 [23] was 0.275 µM, the TGI [23] was 0.626 µM and the GI50 [24] was 1.13 µM. For the same molecule, the GI50 [25] was 5.76 µM, the TGI [25] was 58 µM and the GI50 [26] was 0.17 µM. For the same molecule, the TGI [26] was 0.312 µM, the GI50 [27] was 2.51 µM and the TGI [27] was 24.8 µM. For the same molecule, the GI50 [28] was 6.73 µM, the TGI [28] was 20.7 µM and the GI50 [29] was 1.83 µM. For the same molecule, the TGI [29] was 5.57 µM, the GI50 [30] was 2.45 µM and the TGI [30] was 25.5 µM. The GI50 [31] was 9.22 µM, the GI50 [32] was 1.84 µM and the TGI [32] was 4.68 µM. For the same molecule, the GI50 [33] was 3.56 µM, the TGI [33] was 31.4 µM and the GI50 [34] was 2.28 µM. The GI50 [35] was 3.89 µM, the TGI [35] was 15.7 µM and the GI50 [36] was 1.22 µM.
